Measured values taken from ChEMBL document CHEMBL3997851, “Design and Synthesis of Mercaptoacetamides as Potent, Selective, and Brain Permeable Histone Deacetylase 6 Inhibitors” (ACS Med Chem Lett, 2017).

Experiments:
[1] = biological target: T1, Protein deacetylase HDAC6 (Homo sapiens) (UniProt Q9UBN7); experiment: Inhibition of HDAC6 in HEK293 cells assessed as induction of tubulin acetylation after 24 hrs by Western blot method; type: cell-based
T1 sequence (whole entry): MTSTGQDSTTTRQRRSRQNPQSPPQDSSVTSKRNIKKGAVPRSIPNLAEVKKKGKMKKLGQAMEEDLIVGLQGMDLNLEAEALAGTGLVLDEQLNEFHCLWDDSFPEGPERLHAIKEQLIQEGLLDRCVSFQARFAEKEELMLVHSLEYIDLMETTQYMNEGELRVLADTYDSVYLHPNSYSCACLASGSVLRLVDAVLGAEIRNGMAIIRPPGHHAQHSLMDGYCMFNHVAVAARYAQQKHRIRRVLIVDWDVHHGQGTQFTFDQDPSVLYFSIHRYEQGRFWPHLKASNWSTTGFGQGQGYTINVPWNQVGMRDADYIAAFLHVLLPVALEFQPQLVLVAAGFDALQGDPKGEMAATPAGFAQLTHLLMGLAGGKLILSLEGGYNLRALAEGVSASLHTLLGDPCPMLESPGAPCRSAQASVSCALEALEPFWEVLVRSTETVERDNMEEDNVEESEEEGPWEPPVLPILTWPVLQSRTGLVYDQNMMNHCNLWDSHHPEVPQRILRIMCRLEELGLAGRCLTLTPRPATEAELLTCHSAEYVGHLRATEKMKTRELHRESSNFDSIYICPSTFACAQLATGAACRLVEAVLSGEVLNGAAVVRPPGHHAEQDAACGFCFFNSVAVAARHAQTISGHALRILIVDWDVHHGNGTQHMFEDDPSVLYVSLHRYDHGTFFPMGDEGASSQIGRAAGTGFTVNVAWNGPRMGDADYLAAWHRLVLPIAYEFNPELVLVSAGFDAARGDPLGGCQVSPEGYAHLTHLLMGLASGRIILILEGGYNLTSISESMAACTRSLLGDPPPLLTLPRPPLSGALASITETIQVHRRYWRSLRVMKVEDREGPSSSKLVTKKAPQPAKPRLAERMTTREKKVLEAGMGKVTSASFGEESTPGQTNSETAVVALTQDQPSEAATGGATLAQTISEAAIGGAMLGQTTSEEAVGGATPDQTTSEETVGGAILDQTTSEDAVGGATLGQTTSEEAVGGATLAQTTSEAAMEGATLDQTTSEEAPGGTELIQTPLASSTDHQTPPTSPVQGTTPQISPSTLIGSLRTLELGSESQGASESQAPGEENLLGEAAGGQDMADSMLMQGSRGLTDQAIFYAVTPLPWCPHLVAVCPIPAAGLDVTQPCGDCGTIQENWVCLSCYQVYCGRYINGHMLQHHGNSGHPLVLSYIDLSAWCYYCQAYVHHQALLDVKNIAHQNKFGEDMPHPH
Outline: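 HEK293 cells are treated with compound, and acetylated tubulin and histone H3 are detected by Western blot with GAPDH as loading control. Each blot carries a tubastatin 10 µM positive control and a DMSO or medium negative control.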

Homo sapiens = organism: Homo sapiens; experiment: Selectivity ratio of IC50 for human HDAC1 to IC50 for human HDAC6
Outline: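 HDAC1 and HDAC6 IC50s are each the mean of two experiments.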

inhibition [1]: Dose-dependent effect | Ratio IC50 (Homo sapiens): 2470
SMILES: O=C(CS)NCCCCNc1c(Cl)cc(Cl)c2cccnc12
